“Also recorded” adds a separate entry of the source.
Settings: capsule shells stored without contact over 95 parts PEG 6000 + 5 parts scavenger, 60°C for a week; 2nd solution of JP12 (37 °C), observed after 5 to 6 minutes

O=S([O-])[O-].[Na+].[Na+] [sodium sulfite]
Solubility: completely prevented the decrease of the solubility; also recorded: soluble rapidly

— patent EP0695544B1, “Hard gelatin capsules resistant to denaturation and the production thereof” (SHIONOGI & CO., LTD., priority 1994, dated 1996)
